# Measured values from US20080318861A1, “Mucosal Delivery of Stabilized Formulations of Exendin” (NASTECH PHARMACEUTICAL COMPANY INC., priority 2005, published 2008).
# System: normal, human-derived tracheal/bronchial epithelial cells (EpiAirway Tissue Model)
# Experiment: MTT cell viability assay
# Type: cell-based
# Settings: cell viability as measured by LDH and MTT; exenatide formulation containing the named excipient
# Text: The extraction plate was covered and scaled to reduce evaporation of extractant.
substance,measurement,value
dodecanoylsucrose,toxicity / cell viability in excipient screening (in words),toxic at 10 mg/mL
